Laboratory results taken from patent US10669238B2, “Irreversible bruton's tyrosine kinase inhibitor” (HEFEI INSTITUTES OF PHYSICAL SCIENCE, CHINESE ACADEMY OF …, priority 2016, dated 2020).

By UniProt entry, the sequences of proteins in these tests, tags left out. Where a name states a change or a piece, a line headed by the entry shows the natural chain unless it says otherwise.
UniProt Q06187: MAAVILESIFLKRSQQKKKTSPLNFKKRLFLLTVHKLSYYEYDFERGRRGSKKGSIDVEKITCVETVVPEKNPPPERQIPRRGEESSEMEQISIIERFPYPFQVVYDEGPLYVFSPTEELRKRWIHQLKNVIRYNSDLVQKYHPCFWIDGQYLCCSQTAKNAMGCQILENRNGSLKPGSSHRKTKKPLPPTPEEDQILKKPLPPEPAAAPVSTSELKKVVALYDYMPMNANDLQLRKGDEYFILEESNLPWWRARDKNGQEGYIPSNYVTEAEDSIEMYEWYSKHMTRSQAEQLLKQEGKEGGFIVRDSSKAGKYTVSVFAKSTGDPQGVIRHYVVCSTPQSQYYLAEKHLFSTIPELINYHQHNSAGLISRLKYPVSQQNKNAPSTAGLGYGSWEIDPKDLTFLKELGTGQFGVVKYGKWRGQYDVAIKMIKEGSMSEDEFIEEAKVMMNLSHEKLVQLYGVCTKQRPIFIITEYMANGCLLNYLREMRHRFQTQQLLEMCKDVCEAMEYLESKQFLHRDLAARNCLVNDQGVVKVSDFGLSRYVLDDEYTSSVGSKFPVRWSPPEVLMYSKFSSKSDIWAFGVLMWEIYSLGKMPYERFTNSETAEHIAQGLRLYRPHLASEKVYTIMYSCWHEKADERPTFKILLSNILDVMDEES

Target: BTK protein kinase (Homo sapiens, UniProt Q06187)
Test: In vitro enzymatic activity against BTK (ADP-Glo)
Assay type: biochemical
Method: In vitro enzymatic activity of the compounds against BTK was determined in a experimental assay of in vitro enzymatic activity using […] kit (purchased from Progema, USA).
9 μL of BTK protein kinase (at a concentration of 1.5 ng/μL) was used to react with compounds (1 μL) shown in the following table that were diluted three times in gradient at room temperature for 4 hours (the final concentration of the compound being 10 μM, 3 μM, 1 μM, 0.3 μM, 0.1 μM, 0.03 μM, 0.01 μM, 0.003 μM);
2 μL of ATP and 3 μL of the substrate Poly(4:1 Glu, Tyr)Peptide (Promega, USA) (the final concentrations being 10 μM and 0.2 μg/μL, respectively) were added to allow reaction at 37° C. for 1 hour;
5 μL of BTK kinase solution after reaction was taken and added into 5 μL of ADP-Glo™ (Promega, USA) reagent to allow reaction at room temperature for 40 mins so as to terminate the kinase reaction and exhaust the remaining ATP;
10 μL kinase detecting reagent was added to convert ADP to ATP, and newly synthesized ATP was detected using coupled luciferase/[…] reaction, then the IC50 values were calculated by using a plotting method based on the Envision reading.

Which IC50 does the source give for C=CC(=O)Nc1cc(Nc2cc(-c3cccc(NC(=O)c4ccc(OC)c(OC)c4)c3C)cn(C)c2=O)ccc1C(=O)N1CCOCC1 [Compound 61, N-(3-(5-((3-acrylamide-4-(morpholin-4-carbonyl)phenyl)amino)-1-methyl-6-oxo-1,6-dihydropyridin-3-yl)-2-methylphenyl)-3,4-dimethoxy Benzoylamide] here?
The IC50 was 4.86 µM.
